From patent US5736528A, “N^6 -(epoxynorborn-2-yl) adenosines as A1 adenosine receptor agonists” (priority 1995, dated 1998)

The chains behind the UniProt entries cited, without tags or fusion partners.
UniProt P46616, whole entry: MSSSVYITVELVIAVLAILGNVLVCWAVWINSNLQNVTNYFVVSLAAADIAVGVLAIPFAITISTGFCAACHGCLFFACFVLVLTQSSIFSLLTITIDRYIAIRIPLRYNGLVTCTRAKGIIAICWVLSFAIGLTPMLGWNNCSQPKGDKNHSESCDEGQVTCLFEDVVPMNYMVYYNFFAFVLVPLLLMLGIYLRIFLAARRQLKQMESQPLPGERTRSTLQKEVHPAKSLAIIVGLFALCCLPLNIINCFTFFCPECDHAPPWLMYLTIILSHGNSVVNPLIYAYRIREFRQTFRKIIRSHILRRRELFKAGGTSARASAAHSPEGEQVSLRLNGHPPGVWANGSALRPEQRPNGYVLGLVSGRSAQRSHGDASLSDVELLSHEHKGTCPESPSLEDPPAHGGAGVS

What was measured:
A2 receptor = target: T1, A2 receptor (Cavia porcellus, UniProt P46616); assay: Antagonism of A2 receptor-mediated coronary vasodilation (coronary conductance) caused by adenosine, isolated perfused heart; set-up: species or system guinea pig
T1 construct: isolated perfused guinea pig heart; from tissue; host or cells: isolated perfused guinea pig heart (coronary circulation)
From the text: . The values are the mean±SEM from five guinea pig hearts. […]
1. Functional studies. […]
Potency of various alkylxanthines to antagonize A2
of a maximum coronary vasodilation caused by adenosine. Values in […]

A2 adenosine receptor = target: T2, A2 adenosine receptor (Cavia porcellus, UniProt P46616); assay: A2 receptor binding with [3H]CGS 21,860 in striatum membranes (Table 5); set-up: species or system guinea pig
T2 construct: from tissue; host or cells: guinea pig striatum membranes

Question: What does the source list for CCCn1c(=O)c2[nH]c(C3CCCC3)nc2n(CCC)c1=O [CPX, 8-cyclopentyl-1,3-dipropylxanthine, reference compound]?
Answer: IC50 (A2 receptor): 1500 nM; Ki (A2 adenosine receptor): 63 ± 5.4 nM
